Measured values reported in US10000483B2, “Bone marrow on X chromosome kinase (BMX) inhibitors and uses thereof” (Dana-Farber Cancer Institute, Inc., priority 2012, dated 2018).

Chains of the proteins cited; added tags and fusions are not shown. Residues count along the entry.
UniProt P00533, 25-1210 T790M: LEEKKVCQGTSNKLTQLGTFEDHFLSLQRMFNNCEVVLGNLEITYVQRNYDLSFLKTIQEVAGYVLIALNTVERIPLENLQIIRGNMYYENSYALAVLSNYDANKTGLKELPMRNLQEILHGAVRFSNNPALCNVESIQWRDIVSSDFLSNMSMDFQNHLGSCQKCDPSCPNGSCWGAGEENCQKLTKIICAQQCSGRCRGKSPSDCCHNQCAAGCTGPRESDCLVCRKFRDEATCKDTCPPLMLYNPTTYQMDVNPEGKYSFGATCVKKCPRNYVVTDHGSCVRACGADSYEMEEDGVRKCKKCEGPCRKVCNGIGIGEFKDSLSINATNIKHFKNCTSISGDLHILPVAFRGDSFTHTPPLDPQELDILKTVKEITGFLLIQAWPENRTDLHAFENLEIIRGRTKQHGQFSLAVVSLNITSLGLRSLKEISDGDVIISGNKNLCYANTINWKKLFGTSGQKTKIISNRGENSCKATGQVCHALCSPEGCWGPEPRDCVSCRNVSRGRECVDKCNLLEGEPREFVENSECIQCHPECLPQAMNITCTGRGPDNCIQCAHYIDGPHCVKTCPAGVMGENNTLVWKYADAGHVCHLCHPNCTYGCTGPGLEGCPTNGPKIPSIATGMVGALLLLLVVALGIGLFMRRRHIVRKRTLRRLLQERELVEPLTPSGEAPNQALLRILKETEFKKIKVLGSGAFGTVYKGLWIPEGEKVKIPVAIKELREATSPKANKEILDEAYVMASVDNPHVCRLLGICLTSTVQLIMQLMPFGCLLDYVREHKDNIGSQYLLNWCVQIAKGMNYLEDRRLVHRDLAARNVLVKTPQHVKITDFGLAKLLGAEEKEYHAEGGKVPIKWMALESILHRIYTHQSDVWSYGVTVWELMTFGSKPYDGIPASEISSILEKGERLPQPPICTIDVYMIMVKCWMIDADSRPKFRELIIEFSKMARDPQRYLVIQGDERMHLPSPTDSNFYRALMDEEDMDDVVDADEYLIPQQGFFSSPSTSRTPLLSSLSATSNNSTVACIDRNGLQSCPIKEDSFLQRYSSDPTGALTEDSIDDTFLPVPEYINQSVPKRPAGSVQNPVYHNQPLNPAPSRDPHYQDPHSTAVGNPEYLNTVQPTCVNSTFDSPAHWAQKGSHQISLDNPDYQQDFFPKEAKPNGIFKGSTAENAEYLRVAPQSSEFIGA

Key:
[1] = tested on: TEL-JAK3 transformed Ba/F3 cells; test: cells; settings: Mus musculus, BaF3, read-out: GI50, TEL-JAK3
EGFR(T790M) = EGFR(T790M) (Homo sapiens (Human), UniProt P00533, T790M); test: Invitrogen Select Screening in vitro kinase assay; type: biochemical

Structure (SMILES): C=CC(=O)Nc1cc(-n2c(=O)ccc3cnc4ccc(-c5ccc(NS(C)(=O)=O)cc5)cc4c32)ccc1C [I-14]
- GI50 [1]: 7.98 µM
- IC50 (EGFR(T790M)): 4.28 µM
